This passage reports IC50 results from the Kinase Knowledgebase extract (Sharma et al. 2016).

Amino acid sequences for entries named in this document (tags omitted). A change or cut given only in a name is not applied to a line headed by its entry.
UniProt P42338: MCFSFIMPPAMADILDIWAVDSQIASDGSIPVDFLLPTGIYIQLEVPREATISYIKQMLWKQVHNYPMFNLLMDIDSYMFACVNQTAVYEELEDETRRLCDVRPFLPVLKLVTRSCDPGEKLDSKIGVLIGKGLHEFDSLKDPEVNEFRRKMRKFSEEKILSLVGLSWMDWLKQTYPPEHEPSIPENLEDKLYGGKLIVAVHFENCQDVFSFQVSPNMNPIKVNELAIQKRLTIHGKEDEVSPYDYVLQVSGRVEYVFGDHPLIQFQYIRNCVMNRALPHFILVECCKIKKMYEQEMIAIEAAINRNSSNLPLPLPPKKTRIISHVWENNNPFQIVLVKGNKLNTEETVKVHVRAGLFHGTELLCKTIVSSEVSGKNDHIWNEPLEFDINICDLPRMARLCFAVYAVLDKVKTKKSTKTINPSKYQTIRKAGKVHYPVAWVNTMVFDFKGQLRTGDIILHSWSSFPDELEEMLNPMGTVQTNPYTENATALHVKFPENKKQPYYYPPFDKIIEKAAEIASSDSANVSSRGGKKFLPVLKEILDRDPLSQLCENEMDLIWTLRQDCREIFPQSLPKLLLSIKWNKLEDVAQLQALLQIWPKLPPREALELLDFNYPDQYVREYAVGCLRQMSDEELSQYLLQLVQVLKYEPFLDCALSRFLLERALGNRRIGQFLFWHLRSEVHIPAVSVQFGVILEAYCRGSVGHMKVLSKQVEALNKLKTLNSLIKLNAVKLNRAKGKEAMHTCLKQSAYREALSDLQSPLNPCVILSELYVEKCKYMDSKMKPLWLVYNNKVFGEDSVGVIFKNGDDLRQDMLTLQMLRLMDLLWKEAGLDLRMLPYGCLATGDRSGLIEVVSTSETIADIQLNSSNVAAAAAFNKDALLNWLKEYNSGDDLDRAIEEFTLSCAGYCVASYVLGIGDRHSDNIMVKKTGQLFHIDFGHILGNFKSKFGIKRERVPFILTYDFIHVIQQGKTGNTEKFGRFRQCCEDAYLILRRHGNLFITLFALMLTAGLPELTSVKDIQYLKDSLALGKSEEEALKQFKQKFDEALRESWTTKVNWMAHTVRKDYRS

Several values for one entry are separate records, joined by “and”; a condition that tells them apart may be missing. Equal entries are not always repeated.

This assay addresses PIK3CB (Human) (UniProt P42338). Nature of the assay: Inhibition of PIK3CB Kinase Activity.

A word on the IC50: it is the concentration needed to halve the response being measured. A low value points to inhibition by little substance. `Cc1cc(C(C)Nc2ccccc2)c2nc(N3CCOCC3)cc(=O)n2c1` (stereo unspecified): the IC50 was 7 nM and 10 nM.
